Source: patent publication EP4512427A1, “ANTIBODY-DRUG CONJUGATES BASED ON MOLECULAR GLUE DEGRADERS AND USES THEREOF” (Mablink Bioscience, priority 2023, dated 2025)

Columns and labels:
Assay type in all cases: cell-based, human
[1] = system: BT-474 (HER2-positive) and MDA-MB-231 (HER2-negative) cells; assay: In vitro bystander cell killing assay, co-culture; details: co-culture 2:1, 25 nM ADC, 6 days
Method: (§1) Capacity of trastuzumab (anti-HER2)-based ADC incorporating the lead compound 2384 to exert in vitro bystander killing properties was assessed in a co-culture cell killing assay. BT-474 (HER2-positive) and MDA-MB-231 (HER2-negative) cells were seeded in single or co-culture (2:1 ratio respectively) in 96-well plate at final density of 10 000 cells per well and incubated overnight at 37 °C under a 5% CO2 atmosphere. Cells were then treated with 25 nM of Enhertu® (positive control ADC know to exert bystander cell killing) or TRA-VA-2384 for 6 days. Cells were then collected by trypsinization and transferred into a round-bottom 96-well plate suitable for high-throughput flow cytometry. Cells were washed three times with PBS, resuspended in 50 µL PBS, and incubated with an anti-HER2 APC-conjugated antibody (BD Bioscience, Cat#340554) for 30 min at 4°C in the dark. Analysis was performed using a BD Fortessa flow cytometer controlled by BD FACSDiva software (BD Bioscience) and data were analyzed using FlowJo software (BD Bioscience).

[2] = system: MDA-MB-231 HER2-negative cell line; assay: In vitro bystander cell killing assay, single culture control; details: MDA-MB-231 alone, 25 nM ADC, 6 days
Method: as §1

[3] = system: BT-474 HER2-positive cell line; assay: as above; details: BT-474 alone, 25 nM ADC, 6 days
Method: as §1

## Enhertu
[1]
  bystander cell killing: able to exert bystander cell killing
[2]
  cytotoxicity in single culture: not non-specifically cytotoxic
[3]
  cytotoxicity in single culture: cytotoxic to the BT-474 HER2-positive cell line
